# AlphaSeq binding of Ab-14 light chain variants to a spike HR2 peptide

The measurements come from Li et al. 2023 (doi:10.1038/s41467-023-39022-2) through the FLAb antibody collection.

Binding partner: SARS-CoV-2 spike HR2 peptide, sequence PDVDLGDISGINAS.

Ab-14 is the parent antibody, in scFv form: VH, then a 15-residue (Gly4Ser)3 linker, then VL. The heavy chain is unchanged in all variants.
VH: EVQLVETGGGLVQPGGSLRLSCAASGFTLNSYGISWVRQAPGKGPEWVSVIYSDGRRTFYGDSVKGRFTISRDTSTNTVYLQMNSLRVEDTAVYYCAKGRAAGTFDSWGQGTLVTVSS
VL: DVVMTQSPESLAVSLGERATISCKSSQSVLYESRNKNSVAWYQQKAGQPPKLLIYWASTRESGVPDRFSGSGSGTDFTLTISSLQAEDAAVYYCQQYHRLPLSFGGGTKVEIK

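Phage display of a naive human antibody library on the peptide gave the parent. This is the validation round: designs drawn from the data on random variants, tested in the same kind of assay. Their group label is 14L_Ctrl (Ctrl: baseline library sampled from a position-specific scoring matrix, with some repeated check sequences). AlphaSeq pools MATa yeast showing the antibodies with MATalpha yeast showing the peptide. After mating in shaken culture at 30 °C for 16 h, diploids were selected and their barcode pairs sequenced. Read counts were normalised to the haploid input and turned into Kd by a linear fit to BCL2-family pairs of known affinity, for each replicate. Each pool was mated in six replicate cultures.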

Substitutions are numbered in sequence along the VL above, starting at 1 (not Kabat).
The read-out is the apparent dissociation constant on a log10 scale (nM): the lower, the stronger.
A mean of the replicates is given; it leaves out those without a signal.
Where no diploid with the target was found in that replicate, the entry reads "nd": below detection, most likely a poor binder, though not proof of it.
Values of this round are not directly comparable with the first-round values of the same sequences.

changes,"log10 Kd, replicates","mean, log10 nM",control signals
S28M/L30S/W56N/L100A,nd nd nd nd nd nd,nd,1/18 (1.89)
S26G/Q27W/W56M,nd nd nd nd 2.47 nd,2.47,1/18 (1.97)
S28E/L30N/E32P/R34F,1.75 nd 1.99 2.87 1.52 nd,2.03,1/18 (2.59)
S25P/S62Q/R99G,2.68 nd nd nd nd nd,2.68,0/18
S25L/W56S/S103Q,-0.43 -0.57 -0.57 -0.72 -0.43 -0.23,-0.49,0/18
R99E/S103P,nd nd nd nd 1.90 nd,1.90,0/18
Q27E/A57V/S62P/H98M,nd 2.22 nd 1.27 2.31 1.22,1.76,1/18 (1.36)
S25N/R34T/W56Q/H98F/L100N,nd nd 1.76 nd 2.56 1.99,2.10,1/18 (1.77)
Q27L/W56S/T59I/H98V,-0.08 0.03 0.31 0.23 0.30 0.28,0.18,2/18 (2.20)
K24Q/S25M/H98W,1.24 0.93 1.13 0.63 0.59 0.75,0.88,0/18
Q27M/H98M,1.51 2.12 1.28 1.28 0.99 1.05,1.37,1/18 (2.39)
Q27K/W56M/S62V,0.45 0.53 0.88 0.20 1.39 0.26,0.62,0/18
L30T/S33C,nd nd 2.60 nd nd nd,2.60,1/18 (2.17)
N35W,2.31 2.34 nd nd 2.30 1.97,2.23,1/18 (2.47)
S33D/S62R/L102I,2.08 1.80 2.62 1.44 1.70 2.20,1.97,0/18
L30V/W56A,0.81 0.84 0.68 0.59 0.84 0.82,0.76,2/18 (3.04)
E32L/K36G/Q95T,nd nd nd nd nd nd,nd,0/18
S28P/R34A/K36C/R99M,nd nd 2.12 2.40 nd nd,2.26,0/18
L30R/S33N/N35T,0.84 1.34 1.64 0.53 1.10 1.95,1.23,0/18
Q27G/Y31S/E32P/R34H/W56R/Y97F/S103A,nd nd nd nd nd nd,nd,0/18
Y31R/S33T,nd nd nd 2.44 3.16 nd,2.80,1/18 (1.68)
S25T/S26M/V29D/V39I/W56R/P101M,nd nd nd nd nd nd,nd,0/18
L30I/Y31A/W56E/S103L,0.25 -0.27 -0.27 -0.12 -0.07 -0.12,-0.10,0/18
K36F,nd nd nd nd nd nd,nd,0/18
Y31H/E61I,nd nd nd nd nd nd,nd,0/18
L30Q/N35Q/W56E,0.78 0.50 0.41 0.85 0.73 0.64,0.65,0/18
T59Q/R60P,nd nd nd nd nd nd,nd,0/18
S25T/Q27F/L30M/N35R/S62D,nd nd nd nd nd nd,nd,0/18
S25Q/Y31M/W56Q,0.34 0.61 0.14 -0.21 0.21 0.21,0.22,0/18
Q27S/W56N/S62D/Q95F/R99H,1.50 1.23 0.90 0.92 1.48 0.67,1.12,0/18
Q27D/V29I,1.94 nd 1.92 1.38 0.80 3.63,1.93,1/18 (2.26)

Excerpt, the first 5 entries:

{"changes": "S28M/L30S/W56N/L100A", "log10 Kd, replicates": "nd nd nd nd nd nd", "mean, log10 nM": "nd", "control signals": "1/18 (1.89)"}
{"changes": "S26G/Q27W/W56M", "log10 Kd, replicates": "nd nd nd nd 2.47 nd", "mean, log10 nM": "2.47", "control signals": "1/18 (1.97)"}
{"changes": "S28E/L30N/E32P/R34F", "log10 Kd, replicates": "1.75 nd 1.99 2.87 1.52 nd", "mean, log10 nM": "2.03", "control signals": "1/18 (2.59)"}
{"changes": "S25P/S62Q/R99G", "log10 Kd, replicates": "2.68 nd nd nd nd nd", "mean, log10 nM": "2.68", "control signals": "0/18"}
{"changes": "S25L/W56S/S103Q", "log10 Kd, replicates": "-0.43 -0.57 -0.57 -0.72 -0.43 -0.23", "mean, log10 nM": "-0.49", "control signals": "0/18"}

Three control strains display no target. For all light chain designs, 4% of the pairings with them gave a signal, with a median of 2.64 and one signal in twenty below 1.59, so weak values seen in few replicates may be background. For each scFv, signals with the empty controls are counted beside the result, with their mean in brackets.
The parent sequence was in this pool as ten entries: three were never detected, three once, and four in most replicates, with averages from 0.34 to 2.37.
The authors' rule: three or more of the six replicates give a measured affinity, fewer mean a poor binder.